Measured affinities in a library of Ab-14 heavy chain variants

The target is the same throughout: PDVDLGDISGINAS, from the HR2 region of SARS-CoV-2 spike.

Each scFv is VH, three GGGGS repeats, VL, as in the parent Ab-14, and differs from it in the CDRs of the heavy chain only.
VH: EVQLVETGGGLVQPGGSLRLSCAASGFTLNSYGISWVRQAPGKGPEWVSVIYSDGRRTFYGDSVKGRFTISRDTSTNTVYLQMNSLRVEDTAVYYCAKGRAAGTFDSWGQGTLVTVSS
VL: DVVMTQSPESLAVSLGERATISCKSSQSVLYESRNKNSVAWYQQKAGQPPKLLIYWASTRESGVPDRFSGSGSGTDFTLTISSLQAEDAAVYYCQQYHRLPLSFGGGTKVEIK

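AAYL49 was designed without a model: most single CDR substitutions and a random sample of double and triple ones. The scFvs were displayed on barcoded MATa yeast, the peptide on MATalpha yeast. The frequency of each diploid, read from paired DNA barcodes, reflects how well the two displayed proteins bind. Read counts were normalised to the haploid input and turned into Kd by a linear fit to BCL2-family pairs of known affinity, for each replicate. Each pool was mated in three replicate cultures.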

Changes read parent residue, position, new residue, counted from the first residue of the VH shown. Every variant below is changed at L29 of the VH (sequential numbering). Each Kd is an estimate from the mating assay, the geometric mean of the replicates in which the pair was seen; lower is stronger. "nd" means that the variant was in the library but no mating with the target was seen in any replicate; the authors take this as a sign of poor binding, and no number exists.

changes,Kd (apparent),replicates with signal
F27D L29V G61E,3.0 µM,1/3
L29F V50I A101F,3.5 µM,1/3
F27E L29W G55K,nd,0/3
L29Y Y32N F105C,5.3 µM,1/3
L29T S63R,29 µM,2/3
L29I G55M D106R,nd,0/3
F27G T28H L29Y,6.1 µM,1/3
L29K G99S R100S,nd,0/3
L29D R56S A101K,29 µM,3/3
L29P Y32K S63W,9.4 µM,1/3
L29Q S31L D54G,58 µM,3/3
L29W D54Y K65F,nd,0/3
L29R A101P F105W,21 µM,1/3
T28I L29N D62M,14 µM,2/3
L29F S107A,470 nM,3/3
L29S Y32H T58Y,nd,0/3
T28C L29D R56K,nd,0/3
L29W N30Y Y60S,nd,0/3
L29V G61R A101Q,34 nM,3/3
L29M R56V S63W,nd,0/3
L29Y D62I V64E,32 µM,2/3
L29D V50A Y52F,nd,0/3
L29Q S53A R100D,5.3 nM,3/3
L29P,84 nM,1/3
F27C L29C G33M,5.9 µM,1/3
L29T G55N S107C,27 µM,2/3
L29N A102F S107M,66 µM,2/3
L29M G61M A102Q,nd,0/3
L29Y I34V V64W,21 µM,1/3
L29W D54S A102Q,nd,0/3
L29G S35Q R57N,3.4 µM,1/3
L29Y D54T F105E,nd,0/3
L29C T58M T104A,nd,0/3
L29G R57A S63Q,nd,0/3
L29N R57M S107A,19 µM,2/3
L29W D54K T104D,1.2 µM,2/3
L29E R57A V64Q,47 µM,2/3
L29F Y52I Y60P,2.6 µM,1/3
L29Y S35H G103D,nd,0/3
L29P R56K A101F,46 nM,3/3
L29Q,1.7 µM,1/3
L29R S35Q Y60K,nd,0/3
L29S D62I,11 µM,1/3
L29Q G33K A101L,1.1 µM,2/3
L29H R100H F105E,nd,0/3
F27I L29I S31Y,nd,0/3
L29A G61H S63V,6.9 µM,1/3
L29V G33N S63Y,nd,0/3
L29T G55C K65A,nd,0/3
L29R S31I R57S,nd,0/3
T28P L29C Y32N,nd,0/3
L29D S35P G99Q,900 nM,3/3
L29S R100L A101F,nd,0/3
L29N G61N G103W,45 µM,1/3
L29D V64F F105R,nd,0/3
L29D Y32Q T58H,1.5 µM,1/3
L29S T104L F105C,nd,0/3
F27H L29R I34G,3.0 µM,1/3
L29V F59A D62N,2.2 nM,3/3
F27E L29C R57Y,16 µM,2/3
L29A,950 nM,3/3
T28A L29P G99Y,nd,0/3
L29R S63M,1.8 mM,1/3
L29Q G55A,nd,0/3
F27V L29D D54M,nd,0/3
L29G S63A G103N,nd,0/3
G26R L29D S31W,4.9 nM,3/3
L29H S53E,25 µM,3/3
L29T R57W K65L,5.4 µM,1/3
L29P S31H T104V,nd,0/3

Excerpt, the first 4 entries:

changes	Kd (apparent)	replicates with signal
F27D L29V G61E	3.0 µM	1/3
L29F V50I A101F	3.5 µM	1/3
F27E L29W G55K	nd	0/3
L29Y Y32N F105C	5.3 µM	1/3

Three control strains display no target. For library AAYL49, 15% of the pairings with them gave a signal, with a median of 11 µM and one signal in twenty below 680 nM, so weak values seen in few replicates may be background. Parent in this assay: reference entry 4.4 nM, copy in this library 13 µM (one replicate of three).

Reference: Engelhart et al. 2022, doi:10.1038/s41597-022-01779-4. File: FLAb, binding data.